Amino acid sequences for entries named in this document (tags omitted). Residues count along the entry.
UniProt P97287, 152-309: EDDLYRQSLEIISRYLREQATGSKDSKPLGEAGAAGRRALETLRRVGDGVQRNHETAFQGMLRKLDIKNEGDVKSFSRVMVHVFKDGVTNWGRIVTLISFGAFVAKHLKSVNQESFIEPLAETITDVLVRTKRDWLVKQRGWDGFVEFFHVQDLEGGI

According to publication PMC10620989, “Going beyond Binary: Rapid Identification of Protein–Protein Interaction Modulators Using a Multifragment Kinetic Target-Guided Synthesis Approach” (Journal of Medicinal Chemistry, 2023):

target: GST-tagged mouse Mcl-1-(152–309) (Mus musculus, UniProt P97287); assay: Fluorescence polarization competitive binding assay, GST-Mcl-1 / FITC-Bim-BH3; set-up: reference not given here

With `[N-]=[N+]=NS(=O)(=O)c1ccc(CN(CCSc2ccccc2)Cc2ccc(S(=O)(=O)NC(=O)c3ccccc3)cc2)cc1` [SZ9TA1, O=C(NS(C1=CC=C(CN(CC2=CC=C(S(=O)(N=[N+]=[N-])=O)C=C2)CCSC3=CC=CC=C3)C=C1)(=O)=O)C4=CC=CC=C4] as the molecule, how does the selectivity index read?
Its selectivity index is 1.5.

`O=C(NS(=O)(=O)c1ccc(CN(CCSc2ccccc2)Cc2c(F)cccc2Cl)cc1)c1ccc(CCc2ccccn2)cc1` [SZ15TA17, O=C(NS(C1=CC=C(CN(CCSC2=CC=CC=C2)CC3=C(F)C=CC=C3Cl)C=C1)(=O)=O)C4=CC=C(CCC5=NC=CC=C5)C=C4] was tested. Which selectivity index did it give?
Its selectivity index is 2.8.

For `O=C(NS(=O)(=O)c1ccc(CN(CCSc2ccccc2)Cc2c(F)cccc2Cl)cc1)c1ccc(-c2ccccn2)cc1` [SZ15TA25, O=C(NS(C1=CC=C(CN(CCSC2=CC=CC=C2)CC3=C(F)C=CC=C3Cl)C=C1)(=O)=O)C4=CC=C(C5=NC=CC=C5)C=C4], which selectivity index is on record?
Its selectivity index is 3.6.

`[N-]=[N+]=NS(=O)(=O)c1ccc(CN(CCSc2ccccc2)Cc2ccc(S(=O)(=O)NC(=O)c3cccc4ccccc34)cc2)cc1` [SZ9TA7, O=C(NS(C1=CC=C(CN(CC2=CC=C(S(=O)(N=[N+]=[N-])=O)C=C2)CCSC3=CC=CC=C3)C=C1)(=O)=O)C4=C(C=CC=C5)C5=CC=C4] was tested. Which selectivity index did it give?
Its selectivity index is 8.1.

Which selectivity index does the source give for `Cc1noc(C)c1-c1ccc(S(=O)(=O)NC(=O)c2ccc(CN3C(=O)C(c4ccc(F)cc4F)=C(c4ccc(F)cc4F)C3=O)cc2)cc1` [SZ32TA42, O=C(NS(C1=CC=C(C2=C(C)ON=C2C)C=C1)(=O)=O)C3=CC=C(CN4C(C(C5=C(F)C=C(F)C=C5)=C(C6=CC=C(F)C=C6F)C4=O)=O)C=C3] here?
Its selectivity index is 2.3.

How did the selectivity index turn out when `COc1cccc(CN(CCSc2ccccc2)Cc2ccc(S(=O)(=O)NC(=O)c3sc(-c4ccccc4)nc3C)cc2)c1` [SZ17TA3, O=C(NS(C1=CC=C(CN(CC2=CC(OC)=CC=C2)CCSC3=CC=CC=C3)C=C1)(=O)=O)C4=C(C)N=C(C5=CC=CC=C5)S4] was run?
The selectivity index was 5.8.

How did the selectivity index turn out when `O=C(NS(=O)(=O)c1ccc(CN(CCSc2ccccc2)Cc2c(F)cccc2Cl)cc1)c1ccccc1` [SZ15TA1, O=C(NS(C1=CC=C(CN(CCSC2=CC=CC=C2)CC3=C(F)C=CC=C3Cl)C=C1)(=O)=O)C4=CC=CC=C4] was run?
The selectivity index was 3.0.

With `COc1cc(OC)cc(C(=O)NS(=O)(=O)c2ccc(CN(CCSc3ccccc3)Cc3ccc(S(=O)(=O)N=[N+]=[N-])cc3)cc2)c1` [SZ9TA5, O=C(NS(C1=CC=C(CN(CC2=CC=C(S(=O)(N=[N+]=[N-])=O)C=C2)CCSC3=CC=CC=C3)C=C1)(=O)=O)C4=CC(OC)=CC(OC)=C4] as the molecule, how does the selectivity index read?
Its selectivity index is 4.4.

How did the selectivity index turn out when `Cc1nc(-c2ccccc2)sc1C(=O)NS(=O)(=O)c1ccc(CN(CCSc2ccccc2)Cc2c(F)cccc2Cl)cc1` [SZ15TA3, O=C(NS(C1=CC=C(CN(CCSC2=CC=CC=C2)CC3=C(F)C=CC=C3Cl)C=C1)(=O)=O)C4=C(C)N=C(C5=CC=CC=C5)S4] was run?
The selectivity index was 6.3.

`COc1cccc(CN(CCSc2ccccc2)Cc2ccc(S(=O)(=O)NC(=O)c3cccc4ccccc34)cc2)c1` [SZ17TA7, O=C(NS(C1=CC=C(CN(CC2=CC(OC)=CC=C2)CCSC3=CC=CC=C3)C=C1)(=O)=O)C4=C(C=CC=C5)C5=CC=C4] was tested. Which selectivity index did it give?
The selectivity index was 3.6.
